# Screens: PubChem BioAssay, ICCB-Longwood Screening Facility, Harvard Medical School
# Sampled rows, rich in hits. Any-hit rate of the full collection: about 0.7%.
# Sa growth 42C: S. aureus growth inhibition at 42 and 30 °C, primary screen, LtaS inhibitor project, RN4220, two temperatures; OD600, 20 h, 42 °C; active compounds read low; hit rate 0.53% among 170,000; relative growth, % (test concentration not listed);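 active means relative growth at most 50% at the other temperature and 20+ points below 30 °C, or under 10% at both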
# HCMV UL50-53 inh: inhibitors of HCMV UL50-UL53 interaction, biochemical, HTRF | AID 1918969, 2023 | normalized percent inhibition | inhibition, % (test concentration not listed) | hit rate 0.15% among 190,000; in the data active means inhibition above about 27%, passing the limit was not always enough
# GIV Gai3 FP: blocks GIV peptide binding to rat Galpha-i3. P08753. Galpha-i3/FITC-GIV peptide fluorescence polarization, 90 min; stronger effect = lower value; scaled: aluminum fluoride 0%, vehicle 100%. percent of control (FP), % (test concentration not listed). actives 0.42% (n = 210,000). AID 1224905;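 active means replicate mean at 85% of control or lower, very high polarization wells dropped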;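 further: wells of about 15 µL received 100 nL stock; the first replicate is given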
# * marks the source's active call; other numbers are inactive results; nt = no result given.
SMILES,Sa growth 42C,HCMV UL50-53 inh,GIV Gai3 FP
COc1ccc(N2CCN(CC(NS(=O)(=O)c3ccccc3)c3ccccc3)CC2)cc1 (stereo not drawn),92,-33,nt
CC1=C(C(=O)OC2CCCC2C)C(c2ccc(Cl)cc2)NC(=O)N1 (stereo not drawn),28*,-7,100
CC1=C(C(=O)OC2CCCC2C)C(c2cc3c(cc2Br)OCO3)NC(=O)N1 (stereo not drawn),nt,-9,104
CCOC(=O)CC1C(=O)NCCN1Cc1ccc(C)cc1 (stereo not drawn),nt,10,109
O=C(COc1ccc(Cl)cc1)Nc1ccnn1C1CCCC1,nt,-12,103
CC(=O)NN1C(=O)c2cccc3c(N(C)C)ccc(c23)C1=O,94,nt,66*
CN(C)c1ccc2c3c(cccc13)C(=O)N(c1nc3ccccc3n1C)C2=O,100,4,146
CC(C)NC(=O)N1CCCC(c2cccc(C(=O)NCc3ccc(F)cc3)c2)C1 (stereo not drawn),nt,-9,104
CCSc1nn(CC)c2nc3c(c(=O)n12)C(C)(C)Cc1ccccc1-3,nt,-26,105
O=C(O)Nc1cc(Cl)cc(Cl)c1,-0.4*,0,nt
O=C(Nc1cc(Cl)cc(Cl)c1)C1CC1,79,2,96
Cc1nc(C)c(/C(O)=C/c2nc3cc(Cl)ccc3oc2=O)o1,70,nt,111
O=c1oc2ccccc2nc1/C=C(\O)c1ccccc1,87,4,46*
CC(C)(C)/C(O)=C/c1nc2ccccc2oc1=O,110,nt,103
O=c1oc2ccc(Cl)cc2nc1/C=C(\O)c1ccco1,100,-7,2.2*
COc1ccc(CN2CCCC2c2c(C)noc2C)cc1COCC(F)(F)F (stereo not drawn),nt,nt,100
COc1ccc(-c2nn(-c3ccccc3)cc2/C=C\C(N)=O)cc1,nt,-47,nt
C=CCN(C(=O)c1noc2c1CCCC2)c1ccccc1,96,-36,98
CC1CCC2C(C)C(OC(=O)CCC(=O)O)OC3O[C@@]4(C)CCC1[C@]32OO4 (stereo partly drawn),nt,-80,nt
CCC1CCCCN1Cc1c(O)ccc2cc(-c3nc4ccccc4[nH]3)c(=O)oc12 (stereo not drawn),94,nt,-42*

# Brought forward from above: 7 compounds; new compounds follow.
SMILES,Sa growth 42C,HCMV UL50-53 inh,GIV Gai3 FP
CC(C)(C)/C(O)=C/c1nc2ccccc2oc1=O,110,nt,103
O=c1oc2ccc(Cl)cc2nc1/C=C(\O)c1ccco1,100,-7,2.2*
COc1ccc(CN2CCCC2c2c(C)noc2C)cc1COCC(F)(F)F (stereo not drawn),nt,nt,100
COc1ccc(-c2nn(-c3ccccc3)cc2/C=C\C(N)=O)cc1,nt,-47,nt
C=CCN(C(=O)c1noc2c1CCCC2)c1ccccc1,96,-36,98
CC1CCC2C(C)C(OC(=O)CCC(=O)O)OC3O[C@@]4(C)CCC1[C@]32OO4 (stereo partly drawn),nt,-80,nt
CCC1CCCCN1Cc1c(O)ccc2cc(-c3nc4ccccc4[nH]3)c(=O)oc12 (stereo not drawn),94,nt,-42*
CN1CCN(Cc2c(O)ccc3cc(-c4ccccc4)c(=O)oc23)CC1,88,nt,111
CC1CCCN(C/C(O)=C(\C#N)c2nc3ccccc3[nH]2)C1 (stereo not drawn),120,-21,104
CCOc1cccc2cc(-c3nc4ccccc4[nH]3)c(=O)oc12,nt,-14,nt
CC1CCCN(Cc2c(O)ccc3cc(-c4nc5ccccc5[nH]4)c(=O)oc23)C1 (stereo not drawn),101,-17,-33*
CN1CCN(Cc2c(O)ccc3cc(-c4nc5ccccc5[nH]4)c(=O)oc23)CC1,94,-60,-75*
CC1Oc2ccccc2C(=O)N(CC(=O)c2ccc(Br)cc2)C1=O (stereo not drawn),nt,8,109
N#CC1=C(NC(=O)c2ccccc2)c2ccccc2CC12CCCCC2,nt,nt,106
Cc1ccccc1Nc1c(-c2ccc(N(C)C)cc2)nc2cnccn12,nt,-29,101
CC(=O)OCC(=O)[C@]1(O)CC[C@H]2[C@@H]3CCC4=CC(=O)CC[C@]4(C)[C@@H]3C(=O)C[C@@]21C,nt,-4,nt
O=c1c2nnc(SCc3ccc(Cl)cc3)n2ccn1-c1cccc(F)c1,nt,nt,101
NC(=S)COc1ccc(F)cc1,100,0,nt
CCCCCn1c(=O)[nH]c2cc(C(=O)NCCCN3CCN(C)CC3)ccc2c1=O,nt,-8,102
Cc1c(-c2ccccc2)cc2ccccn12,4.3*,-45,nt
Cc1cc2ccccn2c1C(=O)Nc1ccccc1,87,-7,nt
CCOC(=O)c1c(-c2cccs2)csc1NC(=O)c1ccccc1,114,3,105
CCOC(=O)c1c(-c2ccc(C)o2)csc1NC(=S)NC(=O)N(C)C,-0.6*,-12,110
CCc1cc(-c2csc(S(=O)(=O)NCCc3ccc(S(N)(=O)=O)cc3)c2)on1,nt,nt,104
Cc1cc(N2CCN(c3ccccc3)CC2)nc(-n2nc(C)cc2C)n1,nt,nt,105
Cc1cc(NC2CCCCC2)nc(-n2nc(C)cc2C)n1,nt,-28,103
Cc1cc(Nc2ccccc2C)nc(-n2nc(C)cc2C)n1,-0.2*,nt,103
Cc1cc(N2CCCC2)nc(-n2nc(C)cc2C)n1,7.7*,-12,96
Cc1cc(Nc2cc(F)ccc2C)nc(-n2nc(C)cc2C)n1,3.1*,nt,103
Cc1cc(C)cc(Nc2cc(-n3nc(C)cc3C)ncn2)c1,nt,nt,103
Cc1cc(C)cc(Nc2cc(C)nc(-n3nc(C)cc3C)n2)c1,-0.7*,-4,103
Cc1cc(Nc2ccccc2C)nc(C)n1,nt,-11,98
O=C1/C(=C\c2ccc(F)cc2)CN(Cc2ccccc2)C/C1=C\c1ccc(F)cc1,96,-10,nt
O=C(NCc1ccccn1)c1ccc(-c2nc3ccccc3s2)s1,76,-60,nt
O=C1C2CCCCC2C(=O)N1c1cc([N+](=O)[O-])ccc1F (stereo not drawn),nt,nt,110
CCOC(=O)c1c(N)sc2c1C(C(=O)OCC)CCC2 (stereo not drawn),90,-4,99
CCn1c2ccccc2c2cc(NC(=O)CSc3nncn3C)ccc21,136,-5,nt
CC(=O)N1N=C(c2ccc3c(c2)OCO3)OC1c1ccc(F)cc1 (stereo not drawn),nt,-22,104
COc1cccc(CNCC(C)O)c1OC (stereo not drawn),106,-4,nt
O=C(NCCCN1CCCC1=O)c1ccc(CN2C(=O)CCn3nc(-c4ccc(Cl)cc4)cc32)cc1,nt,-15,102
Cc1cc(Nc2ccc(F)cc2)nc(-n2nc(C)cc2C)n1,2.5*,nt,101
Cc1cc(-n2nc(C)cc2C)nc(-n2nc(C)cc2C)n1,nt,-5,102
CCCCc1ccc(Nc2cc(C)nc(-n3nc(C)cc3C)n2)cc1,22,nt,104
Cc1cc(C)n(-c2nc(NC(C)C)nc(NC(C)C)n2)n1,-0.4*,8,107
CCN(CC)C(=S)SC1CS(=O)(=O)CC1O (stereo not drawn),87,-25,103
O=C(Nc1nnc(SCc2cc(=O)n3ccccc3n2)s1)c1ccccc1Cl,nt,nt,109
Cc1cc(=O)[nH]c2nnc(SCC(=O)c3ccc(Cl)cc3)n12,nt,nt,146
Cc1cc(=O)[nH]c(SCC(=O)Nc2ccc(N3CCCC3)cc2)c1C#N,87,-10,nt
Cc1cc(=O)[nH]c(SCC(=O)Nc2ccc(Br)cc2)c1C#N,7.7*,-8,nt
COC(=O)CNC(c1ccccc1)c1cc(Br)ccc1NC(=O)c1ccc(Cl)cc1 (stereo not drawn),101,-30,98
COC(=O)CNC(c1ccccc1)c1cc(Br)ccc1NC(=O)CCN1CCOCC1 (stereo not drawn),21*,nt,98
NS(=O)(=O)c1ccc(CCNc2cc(C(=O)N3CCOCC3)c3ccccc3n2)cc1,99,-16,nt
Cc1cc2nc(CSc3ccccc3C(=O)O)cc(=O)n2o1,87,-5,110
Cc1cc2nc(NCc3ccc4c(c3)OCO4)c(C(=O)OC(C)C)nc2cc1C,nt,-23,76*
CCOC(=O)c1nc(NCc2ccc3c(c2)OCO3)c2ccccc2n1,101,-17,102
